These are literature values, as cited in publication PMC10985906, “Anticholinesterase activities of novel isoindolin-1,3-dione-based acetohydrazide derivatives: design, synthesis, biological evaluation, molecular dynamic study” (BMC Chemistry, 2024).

Amino acid sequences for entries named in this document (tags omitted). Residues count along the entry.
UniProt P22303, 32-614 limits assumed: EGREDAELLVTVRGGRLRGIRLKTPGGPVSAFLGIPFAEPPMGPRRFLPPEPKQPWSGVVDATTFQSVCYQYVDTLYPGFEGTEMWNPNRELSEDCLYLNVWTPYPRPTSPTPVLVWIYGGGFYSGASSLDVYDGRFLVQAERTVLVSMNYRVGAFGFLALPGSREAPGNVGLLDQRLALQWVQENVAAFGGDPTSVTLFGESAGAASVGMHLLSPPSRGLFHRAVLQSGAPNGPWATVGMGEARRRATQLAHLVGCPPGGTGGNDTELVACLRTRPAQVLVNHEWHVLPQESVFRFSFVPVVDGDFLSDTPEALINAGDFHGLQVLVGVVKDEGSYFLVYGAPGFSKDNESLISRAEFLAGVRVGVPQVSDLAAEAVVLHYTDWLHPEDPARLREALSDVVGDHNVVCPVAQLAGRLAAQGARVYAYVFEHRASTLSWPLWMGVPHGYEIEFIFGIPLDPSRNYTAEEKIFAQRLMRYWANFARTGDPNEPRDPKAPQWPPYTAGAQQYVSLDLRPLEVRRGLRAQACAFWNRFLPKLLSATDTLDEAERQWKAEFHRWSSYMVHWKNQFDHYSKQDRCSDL

In the series the target is AChE (Homo sapiens, UniProt P22303). The note with it: read-out: AChE IC50; previously reported; cited from earlier work.

The structures appear in SMILES notation.

`Cc1nn(CC(=O)N/N=C/c2ccccc2)c(=O)n1-c1ccc(C(=O)N/N=C/c2ccccc2)cc1`: the concentration for half-maximal inhibition (IC50) (in general, the midpoint of a concentration-inhibition curve) was 0.0465 µM.
